# Measured values: PubChem BioAssay AID1379 (National Center for Advancing Translational Sciences (NCATS), 2008)
# Only a part is listed here, and it is no random draw. The source made the active and inactive calls. Calls follow the shape of the dose curve; as a rule, active = well fitted inhibition curve with a large enough effect; inconclusive = small, poorly fitted or top-dose-only effect; inactive = flat fitted curve, though single readings scatter.
# Target: Luciferin 4-monooxygenase (Photuris pensylvanica) (UniProt Q27757)
# Assay: Counterscreen for Luciferase (Kinase-Glo TM) Inhibition; also: nearly all actives have a fitted effect of over 60% in size
# Conditions: ATP luminescence, 8 min
# Experimental: NCGC Assay Overview: NIH Molecular Libraries Screening Centers Network [MLSCN] NIH Chemical Genomics Center [NCGC] MLSCN Grant: None Luciferase (Kinase-Glo, Promega Corporation) was assayed for its ability to generate light using ATP and luciferin as substrates. The ATP concentration in the assay (10 uM) was within the linear range of enzyme activity for the assay conditions used.
# NCGC Assay Protocol Summary: Four uL of substrate mix (final concentration, 50 mM imidazole pH 7.2, 50 mM KCl, 7 mM MgCl2, 10 uM ATP, 0.01% Tween 20, 0.05% BSA) was dispensed into white 1536 well plates. Twenty-three nL of compound was delivered by a pin tool and 2 uL of luciferase detection mix (Kinase-Glo, Promega)) was added. Following 8-minute incubation at ambient temperature, luminescence was measured by a ViewLux (Perkin Elmer) at 5 seconds exposure/plate.
# [1] = at 38.3 µM (top of the series) unless noted
# % is scaled to controls: 0 for no effect and ±100 for the full control effect.
smiles,measurement,setting,value
Cc1cc(SC(NC=O)C(Cl)(Cl)Cl)ncn1 (stereo not drawn),"activity change, negative = inhibition",[1],inactive: -2.26%
O=P(Nc1ccccn1)(c1cccc2ccccc12)c1cccc2ccccc12,"activity change, negative = inhibition",[1],inactive: 3.16%
Cc1cc(SC(NC(=O)c2ccccc2)C(Cl)(Cl)Cl)nc(C(C)C)n1 (stereo not drawn),"activity change, negative = inhibition",[1],inactive: 3.24%
CCC(C)N(CC(C)C)C(=S)SC(NC(C)=O)C(Cl)(Cl)Cl (stereo not drawn),"activity change, negative = inhibition",[1],inactive: -2.01%
COP1(=S)c2c(C)nn(CCC#N)c2N=C(c2ccc(F)cc2)N1C (stereo not drawn),"activity change, negative = inhibition",[1],inactive: -3.4%
O=C(COc1ccccc1)OC1CN2CCC1CC2 (stereo not drawn),"activity change, negative = inhibition",[1],inactive: 3.12%
O=C(O)[C@@H](O)c1ccc([As](=O)(O)O)cc1,"activity change, negative = inhibition",[1],inactive: -0.645% [at 7.66 µM]
O=C(OC1CN2CCC1CC2)C12CC3CC(CC(C3)C1)C2 (stereo not drawn),"activity change, negative = inhibition",[1],inactive: 2.55%
Cc1cc(=O)[nH]c(N[N+](=O)[O-])n1,"activity change, negative = inhibition",[1],inactive: -1.04%
Cc1c2c(nc3ccccc13)SC(C(Cl)Cl)C2 (stereo not drawn),"activity change, negative = inhibition",[1],inactive: -1.91%
COc1ccc2nc(NP(=O)(c3ccccc3)c3ccccc3)sc2c1,"activity change, negative = inhibition",[1],inactive: 3.07%
NC(=O)Nc1cc([As](=O)(O)O)cc(I)c1O,"activity change, negative = inhibition",[1],inactive: -5.15% [at 7.66 µM]
[N-]=[N+]=NCC(N)=O,"activity change, negative = inhibition",[1],inactive: -8.34% [at 7.66 µM]
ClCCSc1nnc(-c2cccnc2)o1,"activity change, negative = inhibition",[1],inactive: -4.91%
O=[As]c1ccc(S(=O)(=O)NCCO)cc1 (stereo not drawn),"activity change, negative = inhibition",[1],inactive: -2.97% [at 7.66 µM]
CC(C)NC(=O)NP(=O)(Oc1ccccc1)Oc1ccccc1,"activity change, negative = inhibition",[1],inactive: -2.2%
CCN(CC)C(=S)SC(NC=O)C(Cl)(Cl)Cl (stereo not drawn),"activity change, negative = inhibition",[1],inactive: -4.51%
O=[N+]([O-])c1cc([N+](=O)[O-])c(-c2ccn[nH]2)s1,"activity change, negative = inhibition",[1],inactive: -0.506%
Cc1ccc2nc3c(c(C)c2c1)CC(C(Cl)Cl)S3 (stereo not drawn),"activity change, negative = inhibition",[1],inactive: 5.04%
NC(=O)Nc1ccc([As](=O)(O)O)cc1,"activity change, negative = inhibition",[1],inactive: 3.05% [at 17.1 µM]
O=[N+]([O-])CC(O)c1ccc([N+](=O)[O-])cc1 (stereo not drawn),"activity change, negative = inhibition",[1],inactive: 0.528%
O=[N+]([O-])c1ccc2c(c1)nnn2O,"activity change, negative = inhibition",[1],inactive: -2.65%
CCOP1(=S)c2c(C)nn(CCC#N)c2N=C(c2ccc(F)cc2)N1C (stereo not drawn),"activity change, negative = inhibition",[1],inactive: 1.94%
CN(C(=O)Cc1ccccc1)[C@@H]1CC[C@]2(CCCO2)C[C@H]1N1CCCC1,"activity change, negative = inhibition",[1],inactive: -8.88%
CCOP1(=S)c2c(C)nn(CCC#N)c2N=C(c2ccccc2F)N1C (stereo not drawn),"activity change, negative = inhibition",[1],inactive: -1.08%
O=P(Nc1nccs1)(Oc1ccccc1)Oc1ccccc1,"activity change, negative = inhibition",[1],inactive: 0.625%
O=P(Nc1nccs1)(c1ccccc1)c1nc2ccccc2s1 (stereo not drawn),"activity change, negative = inhibition",[1],inactive: 62.2%
O=[As](O)(O)c1ccc([As](=O)(O)O)cc1,"activity change, negative = inhibition",[1],inactive: -1.99% [at 7.66 µM]
NS(=O)(=O)Cc1ccc([As](=O)(O)O)cc1,"activity change, negative = inhibition",[1],inactive: -3.99% [at 7.66 µM]
Cc1ccc(NCCc2c([N+](=O)[O-])cc([N+](=O)[O-])cc2[N+](=O)[O-])cc1,"activity change, negative = inhibition",[1],inactive: -1.76%
O=C(CC(=O)c1ccccc1)O[C@H]1CN2CCC1CC2,"activity change, negative = inhibition",[1],inactive: -3.44% [at 7.66 µM]
COc1cc(C2NCCC3(OCCO3)C2(C)C)cc(OC)c1OC (stereo not drawn),"activity change, negative = inhibition",[1],inactive: 1.05%
CCOP(=O)(Nc1cccc2ccccc12)OCC,"activity change, negative = inhibition",[1],inactive: -0.162%
COc1cc(C(=O)NCC2(N3CCOCC3)CCCCC2)cc(Cl)c1OC(C)C,"activity change, negative = inhibition",[1],inactive: -0.0002%
CN(C(=O)Cc1ccc(Cl)c(Cl)c1)[C@@H]1CC[C@]2(CCCO2)C[C@H]1N1CCCC1,"activity change, negative = inhibition",[1],inactive: -4.25%
Cc1cccc(OCC(=O)OC2CN3CCC2CC3)c1 (stereo not drawn),"activity change, negative = inhibition",[1],inactive: 2.05%
CN(C(=O)Cc1ccc(Cl)c(Cl)c1)[C@@H]1CCCC[C@H]1N1CCCC1,"activity change, negative = inhibition",[1],inactive: -5.66%
CC(C)/C=N\N=C(\N)N[N+](=O)[O-],"activity change, negative = inhibition",[1],inactive: -0.793%
CN(CCCl)Cc1cc(Cl)c(NC2=NCCN2)c(Cl)c1,"activity change, negative = inhibition",[1],inactive: -9.85%
O=P1(Nc2ccccn2)COc2ccccc2OC1,"activity change, negative = inhibition",[1],inactive: 0.259%
O=P1(Nc2ncccn2)COc2ccccc2OC1,"activity change, negative = inhibition",[1],inactive: -2.18%
Cc1ccc(OCC(=O)OC2CN3CCC2CC3)cc1 (stereo not drawn),"activity change, negative = inhibition",[1],inactive: 0.441%
O=P1(Nc2ccc(Br)cn2)COc2ccccc2OC1,"activity change, negative = inhibition",[1],inactive: -6.02%
Cc1nn(-c2ccccc2)c2c1P(=O)(N1CCOCC1)N(C)C(c1ccccc1)=N2 (stereo not drawn),"activity change, negative = inhibition",[1],inactive: 2.34%
CC1CCC(C(C)C)C(OP(=O)(Nc2ccccn2)c2ccccc2)C1 (stereo not drawn),"activity change, negative = inhibition",[1],inactive: -1.38%
CC(=O)NC(SC(=S)N(C)C)C(Cl)(Cl)Cl (stereo not drawn),"activity change, negative = inhibition",[1],inactive: 0.506%
C(Cc1nn[nH]n1)Cc1nn[nH]n1,"activity change, negative = inhibition",[1],inactive: 3.55%
O=C(OC1CN2CCC1CC2)c1cccc(Cl)c1 (stereo not drawn),"activity change, negative = inhibition",[1],inactive: -3.16%
O=P(Nc1ccccn1)(c1ccc(Br)cc1)c1ccc(Br)cc1,"activity change, negative = inhibition",[1],inactive: -2.44%
[N-]=[N+]=Nc1ccc([As](=O)(O)O)cc1,"activity change, negative = inhibition",[1],inactive: -4% [at 7.66 µM]
CN1CCC[C@H](OC(=O)C(c2ccccc2)c2ccccc2)C1,"activity change, negative = inhibition",[1],inactive: -3.81% [at 7.66 µM]
C[C@@H](O)COc1ccc([As](=O)(O)O)cc1N,"activity change, negative = inhibition",[1],inactive: -3.66% [at 7.66 µM]
O=P(Nc1nccs1)(c1ccccc1)c1ccccc1,"activity change, negative = inhibition",[1],inactive: 3.83%
CC(C)C(=O)NC(Sc1ccccc1)C(Cl)(Cl)Cl (stereo not drawn),"activity change, negative = inhibition",[1],inactive: -0.812%
c1nnnn1CCn1cnnn1,"activity change, negative = inhibition",[1],inactive: -4.63%
CC(=O)Nc1ccc(Oc2c([N+](=O)[O-])cc([N+](=O)[O-])cc2[N+](=O)[O-])cc1,"activity change, negative = inhibition",[1],inactive: -1.73%
O=P1(Nc2nc3ccc(Cl)cc3s2)COc2ccccc2O1 (stereo not drawn),"activity change, negative = inhibition",[1],inactive: -5.17%
CCOc1ccc(C2=NCC(CBr)S2)cc1 (stereo not drawn),"activity change, negative = inhibition",[1],inactive: 1.84%
CC(C)(C)C(=O)NC(Sc1ccccc1)C(Cl)(Cl)Cl (stereo not drawn),"activity change, negative = inhibition",[1],inactive: -1.5%
COC(=O)c1cc2c(s1)N=C(c1ccccc1)N(C)P2(=O)N1CCOCC1 (stereo not drawn),"activity change, negative = inhibition",[1],inactive: -0.524%
CC(=O)NC(SC(=S)N(CC(C)C)CC(C)C)C(Cl)(Cl)Cl (stereo not drawn),"activity change, negative = inhibition",[1],inactive: 1.57%
Cc1ccc(OP(=O)(Nc2ccccn2)Oc2ccc(C)cc2)cc1,"activity change, negative = inhibition",[1],inactive: 1.69%
CN(C(=O)Cc1ccc(Cl)c(Cl)c1)[C@@H]1CCCC[C@@H]1N1CCCC1,"activity change, negative = inhibition",[1],inactive: -1.71%
CCC(=O)N1C2C3N(C(=O)CC)C1C1N(C(=O)CC)C(C(N1C(=O)CC)N3C(=O)CC)N2C(=O)CC,"activity change, negative = inhibition",[1],inactive: -2.58%
O=c1c2cc([N+](=O)[O-])ccc2[nH]c2c([N+](=O)[O-])cc([N+](=O)[O-])cc12,"activity change, negative = inhibition",[1],inactive: -13.7%
O=C(NC1CCS(=O)(=O)C1)NP(=S)(Oc1ccccc1)Oc1ccccc1 (stereo not drawn),"activity change, negative = inhibition",[1],inactive: 2.84%
CCNC(=S)/N=C(\N)N[N+](=O)[O-],"activity change, negative = inhibition",[1],inactive: -1.3%
c1ccc(-c2nn[nH]n2)c(-c2nn[nH]n2)c1,"activity change, negative = inhibition",[1],inactive: 1.09%
CCOC(=O)NC(Sc1ccccc1)C(Cl)(Cl)Cl (stereo not drawn),"activity change, negative = inhibition",[1],inactive: -2.49%
[N-]=[N+]=NCC(O)CN=[N+]=[N-] (stereo not drawn),"activity change, negative = inhibition",[1],inactive: -2.68% [at 7.66 µM]
C(Cc1nn[nH]n1)c1nn[nH]n1,"activity change, negative = inhibition",[1],inactive: -0.184% [at 7.66 µM]
CCN(N=Nc1nonc1N)c1nonc1N,"activity change, negative = inhibition",[1],inactive: 2.05%
Cc1cc(SC(NC(=O)c2ccc(F)cc2)C(Cl)(Cl)Cl)ncn1 (stereo not drawn),"activity change, negative = inhibition",[1],inactive: 4.61%
CCOP(=O)(Nc1ccccc1)OCC,"activity change, negative = inhibition",[1],inactive: 3.38%
CN(C(=O)Cc1ccc(Cl)c(Cl)c1)[C@H]1CCCC[C@@H]1N1CCCC1,"activity change, negative = inhibition",at 38.3 µM (top of the series),inactive: -0.68% [middle of 5 runs]
same,"activity change, negative = inhibition",at 39.9 µM (top of the series),inactive: 1.21%
CC(C)CC(=O)NC(Sc1ccc(Cl)cc1)C(Cl)(Cl)Cl (stereo not drawn),"activity change, negative = inhibition",[1],inactive: -1.23%
Oc1ccccc1CNc1ccccn1,"activity change, negative = inhibition",[1],inactive: -0.577%
O=C(NC(Sc1ccncn1)C(Cl)(Cl)Cl)c1ccccc1 (stereo not drawn),"activity change, negative = inhibition",[1],inactive: 0.639%
Cc1c2non([O-])c-2c(C)[n+](=O)[n+]1[O-],"activity change, negative = inhibition",[1],inactive: 0.406%
NCC[C@@H](N)CSP(=O)(O)O,"activity change, negative = inhibition",[1],inactive: -3.77% [at 7.66 µM]
NC(=O)c1cc([N+](=O)[O-])cc([N+](=O)[O-])c1N,"activity change, negative = inhibition",[1],inactive: -2.65%
Cc1ccc(N/C(=N/P(=O)(N2CCOCC2)N2CCOCC2)N2CCOCC2)cc1,"activity change, negative = inhibition",[1],inactive: -1.16%
COc1ccccc1OP(=O)(Nc1ccc(C)cn1)Oc1ccccc1OC,"activity change, negative = inhibition",[1],inactive: -1.07%
O=[N+]([O-])c1ccc(C[As](=O)(O)O)cc1,"activity change, negative = inhibition",[1],inactive: 2.62% [at 7.66 µM]
CN1CCCC(OC(=O)C(c2ccccc2)c2ccccc2)C1 (stereo not drawn),"activity change, negative = inhibition",[1],inactive: -4.08%
CCN(/C(=N/P(=O)(N1CCOCC1)N1CCOCC1)N1CCOCC1)c1ccc(OC)cc1,"activity change, negative = inhibition",[1],inactive: 1.79%
CC(C)=N/N=C(\N)N[N+](=O)[O-],"activity change, negative = inhibition",[1],inactive: 1.12%
CN(C)C(=O)OCCc1n(C)cc[n+]1C,"activity change, negative = inhibition",[1],inactive: -0.775%
CC(=O)C1=CCCC2CCC1N2 (stereo not drawn),"activity change, negative = inhibition",[1],inactive: -3.39% [at 39.9 µM]
CC1CCN(C(=O)Oc2c(Cl)cc(Cl)c3cccnc23)CC1,"activity change, negative = inhibition",[1],inactive: -1.89%
O=C(CO)Nc1ccc([As](=O)(O)O)cc1,"activity change, negative = inhibition",[1],inactive: -0.425% [at 7.66 µM]
COc1ccc(C2=NCC(CBr)S2)cc1 (stereo not drawn),"activity change, negative = inhibition",[1],inactive: 1.75%
CC(=O)N1C2C3N(C(C)=O)C1C1N(C(C)=O)C(C(N1C(C)=O)N3C(C)=O)N2C(C)=O,"activity change, negative = inhibition",[1],inactive: -2.66%
O=[N+]([O-])c1cccc2n[nH]nc12,"activity change, negative = inhibition",[1],inactive: -0.774%
Cc1ccc(NP(=O)(Oc2ccccc2)Oc2ccccc2)nc1,"activity change, negative = inhibition",[1],inactive: -2.01%
O=[N+]([O-])c1cc([N+](=O)[O-])c(CCNc2ccccc2)c([N+](=O)[O-])c1,"activity change, negative = inhibition",[1],inactive: -0.538%
O=[N+]([O-])c1ncn(CCn2ncnc2[N+](=O)[O-])n1,"activity change, negative = inhibition",[1],inactive: 0.964%
